Measurements as given in US20070191627A1, “Stilbene derivatives and their use in medicaments” (priority 2003, published 2007).

Protein sequences, listed by entry. Tags and fused reporters are not part of them. Residues count along the entry.
UniProt P23219, 24-599: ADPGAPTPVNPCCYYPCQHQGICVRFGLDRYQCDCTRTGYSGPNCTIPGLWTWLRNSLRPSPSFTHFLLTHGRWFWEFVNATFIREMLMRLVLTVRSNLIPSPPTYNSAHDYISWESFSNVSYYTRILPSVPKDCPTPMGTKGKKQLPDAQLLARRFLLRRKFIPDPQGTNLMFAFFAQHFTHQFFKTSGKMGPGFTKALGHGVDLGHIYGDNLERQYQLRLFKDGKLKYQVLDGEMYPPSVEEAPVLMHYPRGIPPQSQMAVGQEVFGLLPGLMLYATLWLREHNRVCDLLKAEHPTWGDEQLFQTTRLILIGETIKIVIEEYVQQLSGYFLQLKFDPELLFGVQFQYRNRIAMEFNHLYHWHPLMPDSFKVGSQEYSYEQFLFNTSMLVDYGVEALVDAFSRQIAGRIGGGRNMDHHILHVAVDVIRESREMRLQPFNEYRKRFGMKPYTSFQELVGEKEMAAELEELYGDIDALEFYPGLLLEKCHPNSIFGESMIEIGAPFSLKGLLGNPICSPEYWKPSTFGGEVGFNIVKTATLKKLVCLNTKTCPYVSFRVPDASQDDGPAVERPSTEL

Target: T1, COX 1 (Homo sapiens, UniProt P23219)
T1 construct: purchased IBL Products Company, Hamburg, Germany
Assay: COX (human) inhibitor screening assay, COX 1
Type: biochemical
Source text: COX (Human) Inhibitor Screening Assay
An immunoassay of the IBL Products Company, Hamburg, Germany was used for the determination of COX 1 and COX 2 activities. The assay quantitatively determines the prostaglandins F, E and D as well as thromboxan B of such prostaglandins, which are formed by the cyclooxygenase reaction.

Question: Which IC50 does the source give for `Oc1ccc(C=Cc2cc(O)cc(O)c2)cc1` [Resveratrol, 3,4′,5-Trihydroxystilbene, reference compound] here?
Answer: Its IC50 is 0.5 µM.
